The results in this text go back to ChEMBL document CHEMBL1137770, “Biological activity of endomorphin and [Dmt1]endomorphin analogs with six-membered proline surrogates in position 2” (Bioorg Med Chem, 2009).

By UniProt entry, the sequences of proteins in these tests, tags left out.
UniProt P33535, whole entry, looked up: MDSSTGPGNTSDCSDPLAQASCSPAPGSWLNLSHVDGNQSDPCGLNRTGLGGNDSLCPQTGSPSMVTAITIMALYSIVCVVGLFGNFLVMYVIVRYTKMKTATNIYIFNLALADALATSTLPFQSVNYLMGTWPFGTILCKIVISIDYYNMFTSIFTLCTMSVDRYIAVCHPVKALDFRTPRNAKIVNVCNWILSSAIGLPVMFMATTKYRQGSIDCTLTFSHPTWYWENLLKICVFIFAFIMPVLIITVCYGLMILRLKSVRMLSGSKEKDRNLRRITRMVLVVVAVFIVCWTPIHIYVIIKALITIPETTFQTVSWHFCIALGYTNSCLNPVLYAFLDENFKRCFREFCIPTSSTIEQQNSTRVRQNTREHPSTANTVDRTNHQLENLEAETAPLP
UniProt P33533, whole entry, looked up: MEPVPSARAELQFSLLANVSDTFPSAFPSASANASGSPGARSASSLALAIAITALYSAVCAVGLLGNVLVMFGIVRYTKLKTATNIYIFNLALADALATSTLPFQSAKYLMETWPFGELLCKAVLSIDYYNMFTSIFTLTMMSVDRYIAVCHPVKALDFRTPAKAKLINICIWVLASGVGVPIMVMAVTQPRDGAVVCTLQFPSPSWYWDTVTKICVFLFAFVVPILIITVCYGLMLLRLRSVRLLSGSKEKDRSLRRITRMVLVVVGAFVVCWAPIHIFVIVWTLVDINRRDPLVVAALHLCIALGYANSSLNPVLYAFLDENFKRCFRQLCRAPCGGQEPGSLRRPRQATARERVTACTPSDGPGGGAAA

The structures appear in SMILES notation. pIC50: −log10 of the molar value.

Assay [1] concerns the target Mu-type opioid receptor (Rattus norvegicus, UniProt P33535). The experiment in a line: Displacement of [3H]DAMGO from mu opioid receptor in Wistar rat brain membrane. The following applies: strain Wistar. In kind it is cell membranes.
For assay [2], the target named is Delta-type opioid receptor (Rattus norvegicus, UniProt P33533). Briefly: Displacement of [3H][Ile5,6]deltorphin-2 from delta opioid receptor in Wistar rat brain membrane. The following applies: strain Wistar. Background: In a radioligand displacement assay an active substance lowers the binding of a labelled ligand.

For `NC(=O)[C@H](Cc1ccccc1)NC(=O)[C@H](Cc1ccccc1)N(C=O)C1CCN(C(=O)[C@@H](N)Cc2ccc(O)cc2)CC1`, the pIC50 – broadly, the negative decadic logarithm of the IC50, by convention in mol/L – was 6.44 in assay [1] and under 6.00 in assay [2].
